# Measurements: patent WO2017102835A1
# Columns and labels:
# [1] = target: IL-23 (human) (UniProt Q9NPF7); assay: indirect ELISA: bispecific pre-incubated with IL-23, free IL-23 captured on immobilised sensor MB23_DI4_B2fC, anti-p40 detection; affinity from a quadratic equation
# [2] = target: IL-23 (human) (UniProt Q9NPF7); assay: indirect IL-23 ELISA
# [3] = target: TNFa (human) (UniProt P01375); assay: ELISA on immobilised biotinylated TNFa, anti-human-HRP detection; affinity from sigmoidal binding curve
# [4] = target: IL-23 (human) (UniProt Q9NPF7); assay: cell-based or functional assay
# [5] = target: TNFa (human) (UniProt P01375); assay: cell-based or functional assay
Kd [1] [nM],"IC50, IL-23 inhibition assay (splenocyte assay; IL-17 production by mouse splenocytes) [4] [nM]",Substance,other results
0.4,–,MB23_DI4-VH_Ada (bispecific antibody; other documents disagree on this pair),–
4,–,CL_Ada-MB23_DI4 (bispecific antibody; other documents disagree on this pair),fold drop in affinity against the N-terminal fusions [2]: 10 fold; Kd [3]: 0.41 nM
0.4,–,MB23_DI4-VL_Ada (bispecific antibody; other documents disagree on this pair),–
–,0.08,MB23_DI4-VH_Ada (bispecific antibody),–
–,0.65,CL_Ada-MB23_DI4 (bispecific antibody),"fold loss of potency against the N-terminal fusions, IL-23 inhibition assay (splenocyte assay) [4]: 10 fold; IC50, TNFa inhibition assay (NF-kB activation assay, luciferase reporter cells) [5]: 0.29 nM"
–,0.05,MB23_DI4-VL_Ada (bispecific antibody),–
